Source: patent US20260382583A1, “LPA1 ANTAGONISTS FOR TREATING INTERSTITIAL LUNG DISEASE” (published 2026)

Tests used:
[1] = test system: healthy Japanese participants; experiment: Example 2 Part C: MAD study in healthy Japanese participants, blood pressure; details: 30, 60, 90 mg BID
Experimental: (§1) The study was performed in 3 parts in 112 healthy male and female participants, including 24 Japanese participants. Female participants were to be not of childbearing potential. The present study was designed to evaluate the safety and tolerability, PK, and exploratory PD of an oral suspension of Compound A. Parts A and B (Cohort B1 only) enrolled healthy participants and was conducted at a site in The Netherlands and Part B (Cohort B2 to B5) enrolled healthy non-Japanese participants and was conducted at a site in the United Kingdom (UK). Part C enrolled healthy Japanese participants and was conducted at the same site in the UK.
Part C was a MAD study in 3 sequential dose escalation cohorts (30 mg BID, 60 mg BID, and 90 mg BID) of 8 healthy Japanese participants (6 active+2 placebo) each. Eligible participants in Cohorts C1 to C3 received study drug (Compound A or placebo) administered orally for 14 days.
(§2) Physical examinations, vital sign measurements (including orthostasis testing in Cohort A6, Cohort B3 to B5, and C1 to C3 at selected time points), 12-lead electrocardiogram (ECG), and clinical laboratory evaluations were performed at selected times throughout the study. […] Participants were closely monitored for adverse events (AEs). […]

healthy participants = experiment: Example 2 Part A: single ascending dose (SAD) study in healthy participants, blood pressure and safety
Experimental: as §1
Part A was an SAD study in a planned number of 6 sequential dose escalation cohorts (3, 10, 30, 100, 150, or 250 mg) of 8 healthy participants (6 active+2 placebo) each, under fasted conditions. Eligible participants in Part A (excluding those in Cohort A7 [food effect (FE)/pH cohort]) received a single administration of study drug (Compound A or placebo) under fasted conditions. In Cohort A1 to Cohort A6, sentinel dosing was employed (1 active+1 placebo, followed after 48 hours by the remaining participants of the cohort [5 active+1 placebo]). However, in Cohort A6 (250 mg) only the 2 sentinel participants were dosed before discontinuing further enrollment, due to dose-limiting events observed in a sentinel participant. In addition to the 6 ascending dose cohorts, a cohort of 6 healthy participants (Cohort A7; 6 active, 100 mg Compound A) was included to assess the effect of food and pH on the bioavailability of Compound A in a 3-period, open-label, fixed-sequence, crossover design (FE/pH cohort).
as §2

[2] = test system: participants with pulmonary fibrosis; experiment: Phase 2 study (IPF and PPF): syncope and day 1 blood pressure
Experimental: A total of 278 participants with IPF were randomized and 276 participants were treated as of […] analyses data cut-off (4 Aug. 2022). Male and female participants ≥40 years of age with IPF and percent predicted forced vital capacity (ppFVC) >40% and percent predicted DLCO (ppDLCO) >25%; diagnosed within 7 years of screening; having a centrally-read chest HRCT obtained at screening that was consistent with UIP or probable UIP, or having a lung biopsy consistent with UIP were eligible to enter the study. The mean baseline ppFVC for all subjects was 76.5%. In the primary IPF cohort, participants were randomized (1:1:1) to receive 30 mg or 60 mg Compound A or placebo (PBO) twice daily for 26 weeks. Participants were stratified by standard of care (SoC) IPF therapy (pirfenidone versus nintedanib versus none) and region (Japan versus Rest of World) at randomization.
A total of 123 participants with PPF were randomized. Participants (age ≥21 years) were randomized (1:1:1) to receive 30 mg or 60 mg Compound A or PBO twice daily for 26 weeks. […] Immunosuppressive medications (mycophenolate mofetil, mycophenolic acid, azathioprine and/or tacrolimus) were permitted only if dosing is stable for ≥6 months prior to screening. […]

CCCN(C)C(=O)OCc1c(-c2ccc(O[C@H]3CCC[C@H](C(=O)O)C3)c(C)n2)nnn1C
BP reduction trend, Japanese MAD cohorts [1]: no clear Compound A dose-dependent BP reduction trend
Mean SBP (healthy participants; 100 mg fasted (food effect cohort), Day 1, 4 h): 103,8 mmHg
Decrease in SBP and DBP (healthy participants; SAD cohorts): decreased SBP and DBP dose dependently, reversibly, and mostly asymptomatically
Effect on heart rate (healthy participants; SAD cohorts): minimal effect on heart rate
Post-dose reductions in SBP on Day 1 ([2]; 30 and 60 mg arms): self-limited and not associated with any clinical sequelae
Reductions in BP with first dose ([2]; 30 or 60 mg BID, Phase 2): Reductions in BP were noted with first dose administration
